{
  "source": "patent US9012471B2",
  "about": "“Glucose metabolism modulating compounds” (The Trustees of Columbia University in the City of New York, priority 2008, dated 2015)",
  "key": {"Lewis rats [1]": {"tested_on": "Lewis rats", "assay": "Dopamine content of brain and pancreas tissue by ELISA after TBZ", "assay_type": "in vivo, rat", "details": "1.5 mg/Kg i.v., one hour after injection", "procedure": "Anaesthetized rats received an intravenous injection of TBZ and were sacrificed one hour later. Euthanasia was performed by exsanguination of the anesthetized animal. Brain and pancreas were harvested as quickly as possible and frozen at −80° C. until use. Frozen tissue was pulverized in a liquid nitrogen-cooled mortar and extracted in 0.01 N hydrochloric acid (HCl). The tissue extract was centrifuged at 10,000×g at 4° C. to remove debris and the total protein was estimated by reading the absorbance at 280 nm. The concentration of dopamine in the extract was estimated using an ELISA kit from Rocky Mountain Diagnostics (Colorado Springs, Colo.) as per the manufacturer's instructions and normalized to the extract protein concentration."}, "Lewis rats [2]": {"tested_on": "Lewis rats", "assay": "Plasma insulin and glucagon during IPGTT", "assay_type": "in vivo, rat", "procedure": "The fasting blood glucose (BG) levels of the rats were measured using an Accu-Check blood glucose monitoring system (Roche Diagnostics, Sommerville, N.J.). IPGTT was performed in 6-hour fasting anaesthetized animals as previously described ([…], et al. 2001). Briefly, after baseline BG measurements, animals received an I.P. injection of 2 grams of glucose/kg body weight. To minimize stress during the procedure, rats were handled by the same operator during acclimatization and later during weighing and IPGTT. Blood samples (50 μl or 150 μl) were collected at baseline and then again 15, 30, 60, 90, and 120 minutes following I.P. injection of glucose. Blood glucose concentrations were measured immediately on these samples and the remainder processed. Plasma was immediately separated by centrifugation at 3,000×g for 15 minutes and then stored at -80° C. until analysis. Insulin and glucagon concentration measurements in rat plasma were performed by ELISA as per the manufacturer's instructions using kits from Linco Research Inc. (St. Charles, Mich.) and Alpco Diagnostics (Salem, N.H.), respectively. To validate the test, saline injections were performed by the same method. […] The area under the insulin, glucagon and IPGTT glucose concentration×time curve (AUC IPGTT) was calculated by the trapezoidal rule."}},
  "data": [
    {"compound": "COc1cc2c(cc1OC)C1CC(=O)C(CC(C)C)CN1CC2", "note": "(stereo not drawn) [TBZ, tetrabenazine]", "values": [
      {"measurement": "dopamine content of pancreas", "setting": "Lewis rats [1]", "value": "significantly reduced"},
      {"measurement": "plasma insulin amounts after glucose challenge relative to vehicle-treated controls", "setting": "Lewis rats [2]; chronic low doses of TBZ (0.1 mg/Kg body weight/day x 5 days)", "value": "significantly greater"},
      {"measurement": "plasma insulin amounts after glucose challenge relative to vehicle-treated controls", "setting": "Lewis rats [2]; single dose of TBZ", "value": "significantly greater"}
    ]}
  ]
}
